Results: US9295724B2, “Stable formulations for parenteral injection of peptide drugs” (Xeris Pharmaceuticals, Inc., priority 2011, dated 2016)

Experiment: Effect of pH on pramlintide solubility in DMSO
Type: physicochemical
Description: Pramlintide acetate was dissolved in H2O at 2 mg/mL with either a 10 mM citrate buffer, pH 4 or 10 mM phosphate buffer, pH 7. These solutions were lyophilized to dryness ([…]) using a conservative cycle and reconstituted to various nominal concentrations in DMSO. Solubility was measured by visual inspection for clarity and turbidity via A630.

CC[C@H](C)[C@H](NC(=O)[C@@H]1CCCN1C(=O)CNC(=O)[C@H](Cc1ccccc1)NC(=O)[C@H](CC(N)=O)NC(=O)[C@H](CC(N)=O)NC(=O)[C@H](CO)NC(=O)[C@H](CO)NC(=O)[C@H](Cc1c[nH]cn1)NC(=O)[C@@H](NC(=O)[C@H](CC(C)C)NC(=O)[C@H](Cc1ccccc1)NC(=O)[C@H](CC(N)=O)NC(=O)[C@H](C)NC(=O)[C@H](CC(C)C)NC(=O)[C@H](CCCNC(=N)N)NC(=O)[C@H](CCC(N)=O)NC(=O)[C@@H](NC(=O)[C@H](C)NC(=O)[C@@H]1CSSC[C@H](NC(=O)[C@@H](N)CCCCN)C(=O)N[C@@H](CC(N)=O)C(=O)N[C@@H]([C@@H](C)O)C(=O)N[C@@H](C)C(=O)N[C@@H]([C@@H](C)O)C(=O)N1)[C@@H](C)O)C(C)C)C(=O)N[C@@H](CC(C)C)C(=O)N1CCC[C@H]1C(=O)N1CCC[C@H]1C(=O)N[C@H](C(=O)N[C@@H](CC(N)=O)C(=O)N[C@H](C(=O)NCC(=O)N[C@@H](CO)C(=O)N[C@@H](CC(N)=O)C(=O)N[C@H](C(=O)N[C@@H](Cc1ccc(O)cc1)C(N)=O)[C@@H](C)O)C(C)C)[C@@H](C)O [pramlintide, Pramlintide acetate]
solubility in DMSO (pH memory of 4, low concentration): soluble | solubility in DMSO (pH memory of 7): At no concentration
